From publication PMC7611940, “A Conformation Selective Mode of Inhibiting SRC Improves Drug Efficacy and Tolerability” (Cancer Research, 2021)

The chains behind the UniProt entries cited, without tags or fusion partners. Where a name states a change or a piece, a line headed by the entry shows the natural chain unless it says otherwise.
UniProt O43293: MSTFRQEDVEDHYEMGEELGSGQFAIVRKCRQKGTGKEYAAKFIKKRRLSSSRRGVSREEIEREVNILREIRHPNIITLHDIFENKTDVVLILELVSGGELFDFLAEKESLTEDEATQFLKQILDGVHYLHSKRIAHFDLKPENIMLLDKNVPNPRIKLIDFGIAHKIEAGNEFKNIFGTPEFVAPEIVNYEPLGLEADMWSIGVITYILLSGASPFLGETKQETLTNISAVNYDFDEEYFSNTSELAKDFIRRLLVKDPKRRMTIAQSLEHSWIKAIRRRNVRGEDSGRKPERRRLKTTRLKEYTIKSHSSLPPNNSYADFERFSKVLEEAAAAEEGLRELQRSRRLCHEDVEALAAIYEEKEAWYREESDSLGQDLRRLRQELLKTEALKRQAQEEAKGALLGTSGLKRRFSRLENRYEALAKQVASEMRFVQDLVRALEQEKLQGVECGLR
UniProt P07948: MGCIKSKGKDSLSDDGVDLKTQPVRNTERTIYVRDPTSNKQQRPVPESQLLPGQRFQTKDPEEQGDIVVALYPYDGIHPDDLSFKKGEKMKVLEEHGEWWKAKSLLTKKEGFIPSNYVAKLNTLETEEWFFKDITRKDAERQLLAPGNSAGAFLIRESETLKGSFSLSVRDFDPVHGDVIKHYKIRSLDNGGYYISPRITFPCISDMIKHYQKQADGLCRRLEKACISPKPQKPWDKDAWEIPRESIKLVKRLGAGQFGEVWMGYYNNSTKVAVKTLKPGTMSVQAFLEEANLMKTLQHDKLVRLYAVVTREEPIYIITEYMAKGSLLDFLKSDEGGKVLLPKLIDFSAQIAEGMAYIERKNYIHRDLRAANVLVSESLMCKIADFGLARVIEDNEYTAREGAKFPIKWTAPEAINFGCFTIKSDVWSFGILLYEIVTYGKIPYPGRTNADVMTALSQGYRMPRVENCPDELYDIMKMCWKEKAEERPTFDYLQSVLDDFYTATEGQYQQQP
UniProt Q9P289: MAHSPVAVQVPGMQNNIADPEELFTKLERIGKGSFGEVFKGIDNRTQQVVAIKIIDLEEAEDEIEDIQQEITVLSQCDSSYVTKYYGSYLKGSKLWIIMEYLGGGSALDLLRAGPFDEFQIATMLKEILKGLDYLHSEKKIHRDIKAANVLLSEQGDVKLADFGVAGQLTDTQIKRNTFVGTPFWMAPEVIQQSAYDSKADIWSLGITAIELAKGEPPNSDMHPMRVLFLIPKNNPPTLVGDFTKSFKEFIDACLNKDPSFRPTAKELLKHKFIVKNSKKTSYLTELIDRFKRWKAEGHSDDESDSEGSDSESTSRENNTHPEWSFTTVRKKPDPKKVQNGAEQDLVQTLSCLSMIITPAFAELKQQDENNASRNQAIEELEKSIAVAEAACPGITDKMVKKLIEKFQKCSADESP
UniProt P11309, whole entry: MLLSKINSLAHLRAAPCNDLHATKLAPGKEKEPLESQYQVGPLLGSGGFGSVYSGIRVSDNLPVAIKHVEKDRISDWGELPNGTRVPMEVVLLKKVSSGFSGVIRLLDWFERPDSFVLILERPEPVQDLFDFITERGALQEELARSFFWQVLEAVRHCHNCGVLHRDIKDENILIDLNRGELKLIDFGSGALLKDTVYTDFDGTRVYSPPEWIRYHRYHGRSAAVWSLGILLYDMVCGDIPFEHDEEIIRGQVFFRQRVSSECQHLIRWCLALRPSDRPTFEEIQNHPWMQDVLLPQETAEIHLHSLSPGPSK
UniProt Q02156: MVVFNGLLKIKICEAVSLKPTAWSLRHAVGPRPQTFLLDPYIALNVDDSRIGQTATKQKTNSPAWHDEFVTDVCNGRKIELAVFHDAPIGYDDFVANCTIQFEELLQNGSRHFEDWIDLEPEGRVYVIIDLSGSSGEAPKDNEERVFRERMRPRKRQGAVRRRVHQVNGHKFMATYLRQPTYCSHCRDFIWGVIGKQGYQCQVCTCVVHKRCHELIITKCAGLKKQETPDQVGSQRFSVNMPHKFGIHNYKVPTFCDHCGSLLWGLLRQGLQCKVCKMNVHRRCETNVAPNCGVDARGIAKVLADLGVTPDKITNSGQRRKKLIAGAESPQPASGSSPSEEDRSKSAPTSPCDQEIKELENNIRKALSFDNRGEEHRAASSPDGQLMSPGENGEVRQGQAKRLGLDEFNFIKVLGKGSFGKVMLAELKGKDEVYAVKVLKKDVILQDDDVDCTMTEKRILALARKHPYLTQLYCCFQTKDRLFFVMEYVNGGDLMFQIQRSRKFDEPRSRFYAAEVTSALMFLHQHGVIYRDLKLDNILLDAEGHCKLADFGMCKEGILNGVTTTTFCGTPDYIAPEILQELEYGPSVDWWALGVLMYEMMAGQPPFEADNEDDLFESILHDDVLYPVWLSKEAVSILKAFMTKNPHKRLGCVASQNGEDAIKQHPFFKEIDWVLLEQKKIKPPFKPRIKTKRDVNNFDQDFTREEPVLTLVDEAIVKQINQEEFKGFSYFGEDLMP
UniProt Q13464: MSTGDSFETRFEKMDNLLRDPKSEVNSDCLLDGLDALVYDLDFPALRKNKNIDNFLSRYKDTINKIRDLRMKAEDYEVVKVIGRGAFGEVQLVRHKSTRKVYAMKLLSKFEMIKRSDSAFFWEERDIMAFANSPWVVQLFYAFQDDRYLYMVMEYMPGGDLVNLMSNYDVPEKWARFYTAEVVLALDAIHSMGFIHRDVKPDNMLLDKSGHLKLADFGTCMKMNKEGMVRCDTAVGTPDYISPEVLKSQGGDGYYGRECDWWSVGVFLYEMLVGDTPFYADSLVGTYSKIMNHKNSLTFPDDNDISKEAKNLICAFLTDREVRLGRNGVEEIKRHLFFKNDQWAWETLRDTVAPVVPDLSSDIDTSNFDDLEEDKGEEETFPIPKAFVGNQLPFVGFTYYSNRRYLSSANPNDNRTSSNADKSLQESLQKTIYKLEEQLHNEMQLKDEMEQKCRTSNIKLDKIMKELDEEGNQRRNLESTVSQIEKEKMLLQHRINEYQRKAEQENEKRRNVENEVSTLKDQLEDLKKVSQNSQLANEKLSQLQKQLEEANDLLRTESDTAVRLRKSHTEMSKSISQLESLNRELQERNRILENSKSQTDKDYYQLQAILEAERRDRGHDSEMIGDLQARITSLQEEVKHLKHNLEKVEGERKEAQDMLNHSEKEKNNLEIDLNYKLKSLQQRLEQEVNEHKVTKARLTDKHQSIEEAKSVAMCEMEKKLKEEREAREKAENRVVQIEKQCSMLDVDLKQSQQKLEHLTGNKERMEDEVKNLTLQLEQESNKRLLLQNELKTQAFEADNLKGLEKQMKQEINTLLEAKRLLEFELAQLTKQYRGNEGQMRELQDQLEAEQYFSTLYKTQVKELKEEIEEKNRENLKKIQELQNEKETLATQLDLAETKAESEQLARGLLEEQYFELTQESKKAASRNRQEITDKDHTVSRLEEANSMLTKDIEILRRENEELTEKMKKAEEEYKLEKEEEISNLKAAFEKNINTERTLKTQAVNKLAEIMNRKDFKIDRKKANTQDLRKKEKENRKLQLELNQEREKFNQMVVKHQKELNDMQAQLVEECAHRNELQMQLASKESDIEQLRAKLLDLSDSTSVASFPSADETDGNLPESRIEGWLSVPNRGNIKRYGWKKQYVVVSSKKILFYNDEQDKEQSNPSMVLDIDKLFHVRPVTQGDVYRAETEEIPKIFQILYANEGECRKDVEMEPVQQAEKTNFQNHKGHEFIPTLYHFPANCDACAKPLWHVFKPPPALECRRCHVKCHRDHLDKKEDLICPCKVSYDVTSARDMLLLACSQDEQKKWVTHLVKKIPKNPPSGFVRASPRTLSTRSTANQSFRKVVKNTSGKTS
UniProt P08922: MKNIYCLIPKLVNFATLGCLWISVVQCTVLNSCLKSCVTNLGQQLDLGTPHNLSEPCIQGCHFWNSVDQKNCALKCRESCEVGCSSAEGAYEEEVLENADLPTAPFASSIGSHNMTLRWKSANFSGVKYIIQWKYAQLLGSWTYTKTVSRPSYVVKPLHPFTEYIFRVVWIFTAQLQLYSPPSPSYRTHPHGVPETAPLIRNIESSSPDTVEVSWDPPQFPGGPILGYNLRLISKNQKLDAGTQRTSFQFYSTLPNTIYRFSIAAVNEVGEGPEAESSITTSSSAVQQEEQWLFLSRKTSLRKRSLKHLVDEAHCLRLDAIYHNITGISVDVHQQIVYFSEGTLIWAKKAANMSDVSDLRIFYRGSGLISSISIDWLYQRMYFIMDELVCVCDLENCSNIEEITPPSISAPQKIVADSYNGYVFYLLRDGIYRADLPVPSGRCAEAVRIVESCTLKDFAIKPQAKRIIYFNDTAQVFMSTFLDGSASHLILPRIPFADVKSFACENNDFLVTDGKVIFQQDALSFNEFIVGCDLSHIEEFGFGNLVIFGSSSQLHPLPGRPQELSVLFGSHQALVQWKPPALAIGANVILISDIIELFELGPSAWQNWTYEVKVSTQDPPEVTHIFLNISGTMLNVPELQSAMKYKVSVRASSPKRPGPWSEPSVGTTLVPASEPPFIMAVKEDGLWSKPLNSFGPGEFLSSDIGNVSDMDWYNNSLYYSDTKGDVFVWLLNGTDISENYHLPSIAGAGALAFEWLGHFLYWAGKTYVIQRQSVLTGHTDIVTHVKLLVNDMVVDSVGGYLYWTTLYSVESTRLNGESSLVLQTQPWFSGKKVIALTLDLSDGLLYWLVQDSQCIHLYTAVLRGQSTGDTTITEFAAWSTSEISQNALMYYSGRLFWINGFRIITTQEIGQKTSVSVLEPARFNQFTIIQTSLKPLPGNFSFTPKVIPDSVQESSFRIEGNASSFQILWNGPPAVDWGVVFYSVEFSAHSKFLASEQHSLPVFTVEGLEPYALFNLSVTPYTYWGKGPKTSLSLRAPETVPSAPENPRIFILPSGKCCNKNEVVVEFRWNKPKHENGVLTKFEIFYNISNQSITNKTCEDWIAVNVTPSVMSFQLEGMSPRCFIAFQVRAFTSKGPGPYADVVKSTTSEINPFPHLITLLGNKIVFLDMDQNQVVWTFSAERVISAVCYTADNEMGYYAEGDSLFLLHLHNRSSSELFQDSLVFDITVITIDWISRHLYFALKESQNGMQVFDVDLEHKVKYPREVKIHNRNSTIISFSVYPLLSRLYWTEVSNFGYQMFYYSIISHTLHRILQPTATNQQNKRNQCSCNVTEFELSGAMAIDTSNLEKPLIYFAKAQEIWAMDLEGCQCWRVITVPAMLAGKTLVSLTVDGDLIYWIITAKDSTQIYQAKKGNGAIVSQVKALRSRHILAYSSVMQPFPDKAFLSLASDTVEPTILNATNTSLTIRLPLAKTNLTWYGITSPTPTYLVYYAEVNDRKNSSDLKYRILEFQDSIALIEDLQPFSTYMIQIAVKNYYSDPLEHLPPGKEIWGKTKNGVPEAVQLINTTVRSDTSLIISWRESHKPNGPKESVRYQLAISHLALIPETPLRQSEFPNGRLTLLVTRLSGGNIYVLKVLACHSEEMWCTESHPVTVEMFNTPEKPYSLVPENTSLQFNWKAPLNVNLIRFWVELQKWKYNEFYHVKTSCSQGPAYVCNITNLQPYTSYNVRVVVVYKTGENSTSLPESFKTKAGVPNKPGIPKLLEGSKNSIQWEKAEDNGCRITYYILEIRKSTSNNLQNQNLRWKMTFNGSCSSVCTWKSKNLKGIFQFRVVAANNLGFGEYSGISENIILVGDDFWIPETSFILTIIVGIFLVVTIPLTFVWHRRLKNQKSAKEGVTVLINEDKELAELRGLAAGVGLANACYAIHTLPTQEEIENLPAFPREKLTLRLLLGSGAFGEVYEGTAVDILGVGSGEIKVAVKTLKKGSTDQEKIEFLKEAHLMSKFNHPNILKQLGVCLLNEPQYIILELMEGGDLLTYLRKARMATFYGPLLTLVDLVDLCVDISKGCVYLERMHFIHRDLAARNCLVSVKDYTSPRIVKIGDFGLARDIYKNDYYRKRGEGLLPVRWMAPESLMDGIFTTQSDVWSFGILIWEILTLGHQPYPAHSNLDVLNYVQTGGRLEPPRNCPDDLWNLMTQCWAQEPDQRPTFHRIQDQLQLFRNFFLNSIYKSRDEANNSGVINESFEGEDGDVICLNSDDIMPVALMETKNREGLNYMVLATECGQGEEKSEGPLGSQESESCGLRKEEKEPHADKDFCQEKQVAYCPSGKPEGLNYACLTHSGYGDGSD
UniProt Q99986: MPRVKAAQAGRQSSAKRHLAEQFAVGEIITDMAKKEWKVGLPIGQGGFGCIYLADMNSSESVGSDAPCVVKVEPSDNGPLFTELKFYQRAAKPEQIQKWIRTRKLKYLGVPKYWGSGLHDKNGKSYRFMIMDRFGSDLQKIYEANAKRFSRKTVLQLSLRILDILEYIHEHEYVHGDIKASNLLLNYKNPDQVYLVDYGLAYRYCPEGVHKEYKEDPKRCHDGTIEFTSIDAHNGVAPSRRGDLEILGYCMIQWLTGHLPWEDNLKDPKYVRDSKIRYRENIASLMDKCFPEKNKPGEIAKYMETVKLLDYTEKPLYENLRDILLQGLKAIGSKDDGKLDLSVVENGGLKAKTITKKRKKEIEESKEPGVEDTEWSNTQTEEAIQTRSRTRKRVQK

Assays:
Experiment in all cases: biochemical
Conditions in all cases: read-out: % remaining activity
AXL = AXL (Homo sapiens, UniProt P30530)
CAMK1a = target: T1, CAMK1a (Homo sapiens, UniProt Q14012)
T1 construct: gene CAMK1

CDK1/cyclin E = CDK1/cyclin E (Homo sapiens, UniProt P06493)
CDK9/cyclin K = CDK9/cyclin K (Homo sapiens, UniProt P50750)
CLK2 = CLK2 (Homo sapiens, UniProt P49760)
CLK3 = CLK3 (Homo sapiens, UniProt P49761)
DAPK3 = DAPK3 (Homo sapiens, UniProt O43293)
EPHA2 = EPHA2 (Homo sapiens, UniProt P29317)
FGFR4 = FGFR4 (Homo sapiens, UniProt P22455)
IGF1R = IGF1R (Homo sapiens, UniProt P08069)
LKB1 = target: T2, LKB1 (Homo sapiens, UniProt Q15831)
T2 construct: gene STK11

LYN = LYN (Homo sapiens, UniProt P07948)
MAP2K6 = MAP2K6 (Homo sapiens, UniProt P52564)
MAP3K12 = MAP3K12 (Homo sapiens, UniProt Q12852)
MARK4 = MARK4 (Homo sapiens, UniProt Q96L34)
MEK2 = target: T3, MEK2 (Homo sapiens, UniProt P36507)
T3 construct: gene MAP2K2

MEKK1 = target: T4, MEKK1 (Homo sapiens, UniProt Q13233)
T4 construct: gene MAP3K1

MLK3 = target: T5, MLK3 (Homo sapiens, UniProt Q16584)
T5 construct: gene MAP3K11

MST4 = target: T6, MST4 (Homo sapiens, UniProt Q9P289)
T6 construct: gene STK26

NEK7 = NEK7 (Homo sapiens, UniProt Q8TDX7)
P38-delta = target: T7, P38-delta (Homo sapiens, UniProt O15264)
T7 construct: gene MAPK13

PAK6 = PAK6 (Homo sapiens, UniProt Q9NQU5)
PHKg1 = PHKg1 (Homo sapiens, UniProt Q16816)
PIM1 = PIM1 (Homo sapiens, UniProt P11309)
PKCb2 = target: T8, PKCb2 (Homo sapiens, UniProt P05771)
T8 construct: gene PRKCB

PKCepsilon = target: T9, PKCepsilon (Homo sapiens, UniProt Q02156)
T9 construct: gene PRKCE

ROCK1 = ROCK1 (Homo sapiens, UniProt Q13464)
ROS1 = ROS1 (Homo sapiens, UniProt P08922)
SIK2 = SIK2 (Homo sapiens, UniProt Q9H0K1)
STK17A = STK17A (Homo sapiens, UniProt Q9UEE5)
STK39 = STK39 (Homo sapiens, UniProt Q9UEW8)
TSSK2 = TSSK2 (Homo sapiens, UniProt Q96PF2)
TYK2 = TYK2 (Homo sapiens, UniProt P29597)
VRK1 = VRK1 (Homo sapiens, UniProt Q99986)
VRK2 = VRK2 (Homo sapiens, UniProt Q86Y07)
WNK1 = WNK1 (Homo sapiens, UniProt Q9H4A3)

remaining activity at 1 µM (AXL): 64.1%
remaining activity at 1 µM (CAMK1a): 97.4%
remaining activity at 1 µM (CDK1/cyclin E): 106%
remaining activity at 1 µM (CDK9/cyclin K): 95.7%
remaining activity at 1 µM (CLK2): 92.1%
remaining activity at 1 µM (CLK3): 95.2%
remaining activity at 1 µM (DAPK3): 93%
remaining activity at 1 µM (EPHA2): 102%
remaining activity at 1 µM (FGFR4): 94.9%
remaining activity at 1 µM (IGF1R): 101%
remaining activity at 1 µM (LKB1): 100%
remaining activity at 1 µM (LYN): 1.3%
remaining activity at 1 µM (MAP2K6): 106%
remaining activity at 1 µM (MAP3K12): 108%
remaining activity at 1 µM (MARK4): 98.6%
remaining activity at 1 µM (MEK2): 78.8%
remaining activity at 1 µM (MEKK1): 100%
remaining activity at 1 µM (MLK3): 100%
remaining activity at 1 µM (MST4): 98.7%
remaining activity at 1 µM (NEK7): 81.3%
remaining activity at 1 µM (P38-delta): 106%
remaining activity at 1 µM (PAK6): 102%
remaining activity at 1 µM (PHKg1): 98.5%
remaining activity at 1 µM (PIM1): 95.9%
remaining activity at 1 µM (PKCb2): 89.1%
remaining activity at 1 µM (PKCepsilon): 99.9%
remaining activity at 1 µM (ROCK1): 110%
remaining activity at 1 µM (ROS1): 102%
remaining activity at 1 µM (SIK2): 93.6%
remaining activity at 1 µM (STK17A): 104%
remaining activity at 1 µM (STK39): 99.2%
remaining activity at 1 µM (TSSK2): 123%
remaining activity at 1 µM (TYK2): 89.6%
remaining activity at 1 µM (VRK1): 104%
remaining activity at 1 µM (VRK2): 93.6%
remaining activity at 1 µM (WNK1): 99.2%
Structure (SMILES): COc1cc(-c2nn(CCN3CCC(N(C)C)CC3)c3ncnc(N)c23)ccc1NC(=O)OC(C)(C)C [eCF506]
